# Literature values in patent US9422302B2 (priority 2013, dated 2016).
# Protein sequences, listed by entry. Tags and fused reporters are not part of them. Lines headed by an entry give the natural chain unless they say otherwise; changes in a name come on top.
# UniProt P33533, whole entry, looked up: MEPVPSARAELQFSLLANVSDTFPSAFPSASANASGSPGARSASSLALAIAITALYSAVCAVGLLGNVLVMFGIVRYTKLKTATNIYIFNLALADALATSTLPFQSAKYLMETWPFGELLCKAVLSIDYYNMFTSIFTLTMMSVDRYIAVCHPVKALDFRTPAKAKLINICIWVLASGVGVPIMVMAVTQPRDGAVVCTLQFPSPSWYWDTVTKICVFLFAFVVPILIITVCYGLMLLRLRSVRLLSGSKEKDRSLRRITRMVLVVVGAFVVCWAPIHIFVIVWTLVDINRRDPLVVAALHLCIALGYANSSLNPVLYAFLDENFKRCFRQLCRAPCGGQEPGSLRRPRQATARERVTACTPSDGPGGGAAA
# Biological target: δ receptor (Rattus norvegicus, UniProt P33533)
# Conditions: relative to BW373U86 = 1.00, buprenorphine and naltrexone designated 0 as classified antagonists; cited from earlier work
compound,measurement,value
CO[C@]12CC[C@@]3(C[C@@H]1C(C)(C)O)[C@H]1Cc4ccc(O)c5c4[C@@]3(CCN1CC1CC1)[C@H]2O5,Relative % Emax Experimental,0.08
"(±)-4-((α-R*)-α-((2S*,5R*)-4-Allyl-2,5-dimethyl-1-piperazinyl)-3-hydroxybenzyl)-N,N-diethyl-benzamide",Relative % Emax Experimental,1.00
